This is a selection: effects in other tests are not listed, and their absence says nothing.
What was measured:
Chang Liver = assay: MTT cytotoxicity, normal Chang liver; settings: read-out: IC50, Chang Liver, normal cell line, 48 h incubation
HuTu 80 = assay: MTT cytotoxicity, HuTu 80; settings: read-out: IC50, HuTu 80, cancer cell line, 48 h incubation
PANC-1 = assay: MTT cytotoxicity, PANC-1; settings: read-out: IC50, PANC-1, cancer cell line, 48 h incubation

Measured: IC50

O=[N+]([O-])c1cc([N+](=O)[O-])c2no[n+]([O-])c2c1Cl
> 100 µM: Chang Liver | HuTu 80 | PANC-1

— paper PMC10145285, “Diverse Biological Activity of Benzofuroxan/Sterically Hindered Phenols Hybrids” (Pharmaceuticals, 2023)
